The values that follow are results of earlier work, collected in US6468762B1, “High specificity homocysteinases” (AntiCancer, Inc., priority 1997, dated 2002).

For series [1] the following is noted: highly purified and active enzyme; unit = 1 micromole substrate converted per minute; cited from earlier work.
The conditions of series [2]: scale where activity toward methionine is assigned 100; cited from earlier work.
For series [3] the following is noted: scale where activity toward methionine is assigned 100; cited from earlier work. This is another data set of the same source.
The conditions of series [4]: scale where activity toward methionine is assigned 100; cited from earlier work. This is another data set of the same source.

For the substance “L-methionine-alpha-deamino-gamma-mercaptomethane lyase [P. putida enzyme]”, the specific activity result in series [1] is “about 20 units/mg”. The “relative activity toward methionine” value in series [2] is recorded as 100. Also, the “relative activity toward cysteine” value in series [3] was 10. Besides, in series [4], the “relative activity toward homocysteine” value was 180.
